The target of assay [1] is T1, C-X-C chemokine receptor type 1 (Homo sapiens, UniProt P25024).
Assay [2] addresses T1, C-X-C chemokine receptor type 1. Description: Antagonist activity at CXCR1 assessed as inhibition of CXCL8 binding by cell based assay.

Amino acid sequences for entries named in this document (tags omitted).
UniProt P25024, whole entry: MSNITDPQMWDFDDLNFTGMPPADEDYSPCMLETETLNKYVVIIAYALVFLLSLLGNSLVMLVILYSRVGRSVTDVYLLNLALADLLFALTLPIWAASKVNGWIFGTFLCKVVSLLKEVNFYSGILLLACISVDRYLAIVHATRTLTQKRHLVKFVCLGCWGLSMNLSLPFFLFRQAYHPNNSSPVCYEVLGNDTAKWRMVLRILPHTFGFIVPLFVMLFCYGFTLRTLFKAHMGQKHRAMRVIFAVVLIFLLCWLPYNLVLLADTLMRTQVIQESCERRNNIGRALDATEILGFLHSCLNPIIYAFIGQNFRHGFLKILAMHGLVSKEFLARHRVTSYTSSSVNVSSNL

`O=C(Nc1ccc([N+](=O)[O-])cc1O)Nc1ccccc1Br`: the results for the IC50 in assay [1] and in assay [2] were greater than 3000 nM and 22 nM, respectively.
